Assays:
[1] = system: TLR2 induced IL-6 in peripheral blood mononuclear cells (PBMCs); test: PBMC TLR2 Induced IL-6 Assay; format: cell-based; settings: human PBMCs, lipoteichoic acid stimulated, IL-6 by ELISA; for EC50: read-out: Cell EC50
Method: PBMC TLR2 Induced IL-6 Assay
Peripheral blood mononuclear cells (PBMCs) were isolated from human blood containing the anti-coagulant EDTA (2.5 mM) by centrifugation over a FICOLL® gradient. PBMCs (250000 cells/well) were cultured in assay media (RPMI with 10% heat inactivated FCS) with compounds for 30 minutes at 37° C. in a 5% CO2 incubator. Following pretreatment with compounds, cells were stimulated for 5 hours with 10 µg/ml lipoteichoic acid (Invivogen, San Diego, Calif.), a TLR2 agonist. At the end of the culture, plates were centrifuged at 1800 rpm for 10 minutes to pellet the cells. Supernatants were harvested and analyzed for IL-6 levels by ELISA (BD Biosciences, San Jose, Calif.).

Chains of the proteins cited; added tags and fusions are not shown.
UniProt Q9NWZ3, whole entry: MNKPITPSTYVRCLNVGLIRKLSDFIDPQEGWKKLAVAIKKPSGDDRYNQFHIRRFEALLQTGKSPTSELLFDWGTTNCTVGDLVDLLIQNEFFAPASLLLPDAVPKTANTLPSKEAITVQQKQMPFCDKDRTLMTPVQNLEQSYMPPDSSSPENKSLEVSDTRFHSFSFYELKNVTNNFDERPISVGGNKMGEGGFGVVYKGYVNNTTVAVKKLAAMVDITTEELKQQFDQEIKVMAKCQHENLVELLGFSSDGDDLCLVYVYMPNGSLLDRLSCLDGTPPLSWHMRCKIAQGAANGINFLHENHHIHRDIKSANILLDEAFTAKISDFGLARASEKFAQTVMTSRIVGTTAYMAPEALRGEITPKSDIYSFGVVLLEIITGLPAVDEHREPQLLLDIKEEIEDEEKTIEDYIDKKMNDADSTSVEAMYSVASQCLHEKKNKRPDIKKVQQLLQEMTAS

IRAK4 = IRAK4 (Homo sapiens (Human), UniProt Q9NWZ3); test: IRAK4 Inhibition Assay; format: biochemical; settings: read-out: IRAK4 IC50; ATP 500 μM; IRAK4 0.6 nM

| Compound | EC50 [1] [nM] | IC50 ([1]; read-out: Cell IC50) [nM] | IC50 (IRAK4) [nM] |
| --- | --- | --- | --- |
| Cc1ccc(CNc2cc(-n3ccc4cc(C#N)cnc43)ncc2C(=O)NC[C@@H](F)C(C)(C)O)cn1 | 346 | 1300 |  |
| CC(C)(O)[C@H](F)CNC(=O)c1cnc(-n2ccc3cc(C#N)cnc32)cc1NC1CCCC(CO)C1 (single isomer, unassigned) [Example 445] | 31 |  | 1.6 |

From patent US9169252B2 (BRISTOL-MYERS SQUIBB COMPANY, priority 2014, dated 2015)
